The list shows a part of the results, in another mix than the full data. Activity calls are given as the source filed them.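 The calls were made as follows: active = B-score of the integrated calcium signal more than 4 SD below the library mean, with starting fluorescence not abnormally high; inactive = the rest.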

A short description of this test: RGS4 potentiators or activators, primary screen, cell-based, HEK293 M3R inducible RGS4, calcium flux (AID 463111).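 Also: negative B-score means reduced calcium response which marks RGS4 activation or potentiation.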 The settings on record: HEK293 M3R/inducible RGS4, carbachol calcium flux Fluo4; at 10 µM; hits give low values. The method in brief: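 System – HEK293 FlpIn-TREx cells, stable M3R, doxycycline-inducible RGS4 · Reagent – ECmax carbachol challenge · Times – compound preincubation 20 min at room temperature before agonist · Technique – Fluo4 fluorescence kinetic imaging of calcium · Measure – B score of integrated Fluo4 ratio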
A general note: A change in cytosolic calcium serves as a functional read-out for many receptors and channels.
As for `O=C(OC1CN2CCC1CC2)c1cccc(Cl)c1` (configuration not stated), the B-score was active: -7.87.

On to `Cc1ccccc1OP(=O)(Nc1ccccn1)Oc1ccccc1C`, for which the B-score is active: -7.65. The value for `Cc1c2non([O-])c-2c(C)[n+](=O)[n+]1[O-]` was active: -7.21. With `CN1CCCC(OC(=O)C(c2ccccc2)c2ccccc2)C1` (configuration not stated), the B-score is active: -10.6.

For `O=C(OC1CN2CCC1CC2)C12CC3CC(CC(C3)C1)C2` (configuration not stated), the B-score was active: -9.69.

As to `O=C(OC1CN2CCC1CC2)c1ccc(Cl)cc1` (configuration not stated), the B-score was active: -9.27. For `CN(C(=O)Cc1ccccc1)[C@@H]1CC[C@]2(CCCO2)C[C@H]1N1CCCC1`, the B-score is active: -10.4.
